Target: D(1A) dopamine receptor (Rattus norvegicus) (UniProt P18901)
Details: Striatum

Chains of the proteins cited; added tags and fusions are not shown.
UniProt P18901, whole entry: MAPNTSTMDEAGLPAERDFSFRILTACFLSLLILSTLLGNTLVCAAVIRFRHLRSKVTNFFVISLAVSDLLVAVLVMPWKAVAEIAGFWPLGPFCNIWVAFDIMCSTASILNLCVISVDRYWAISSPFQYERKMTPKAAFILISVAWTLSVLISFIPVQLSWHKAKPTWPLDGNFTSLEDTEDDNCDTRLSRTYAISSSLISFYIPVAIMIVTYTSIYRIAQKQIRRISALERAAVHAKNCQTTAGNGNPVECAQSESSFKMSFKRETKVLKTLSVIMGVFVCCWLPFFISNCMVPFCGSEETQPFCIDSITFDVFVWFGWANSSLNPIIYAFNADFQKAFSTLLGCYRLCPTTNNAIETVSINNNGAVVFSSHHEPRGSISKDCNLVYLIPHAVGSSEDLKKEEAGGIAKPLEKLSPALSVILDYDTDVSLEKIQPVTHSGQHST

Question: How did the K bind turn out when `CCCN(CCC)CCc1ccc(O)c2[nH]c(O)nc12` was run?
Answer: Its K bind is 2420 nM.

Question: `CCCN(CCC)CCc1ccc(O)c2nc(O)sc12` was tested. Which K bind did it give?
Answer: The K bind was 516 nM.

Question: How did the K bind turn out when `CCCN(CCC)CCc1cccc2nc(O)sc12` was run?
Answer: The K bind was 4700 nM.

Question: With `CCCN(CCC)CCc1ccc(O)c2nc(O)oc12` as the compound, how does the K bind read?
Answer: The K bind was 6330 nM.

Question: Which K bind does the source give for `NCCc1cccc2nc(O)sc12` here?
Answer: Its K bind is 980 nM.

Question: For `CNCCc1ccc(O)c2nc(O)sc12`, which K bind is on record?
Answer: The K bind was 30 nM.

Question: Which K bind does the source give for `CCCN(CCC)CCc1ccc(O)c2c1C(=O)C(=O)N2` here?
Answer: Its K bind is 10000 nM.
